From PubChem BioAssay
ELG1 DNA repair: ELG1-dependent DNA repair inhibition; hit rate 2.3% among 330,000; Potency, µM (titrated, usually from 46.1 µM), without a hit: top-dose activity change, negative = inhibition, hits mostly inhibitors; HEK293T ELG1-luciferase reporter, luminescence, 16 h; DNA damage induced by 5-fluorouridine; AID 504467; further: on the % scale 0 is the no-effect control and ±100 the full control effect; nearly all actives have a fitted effect of over 55% in size
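DMSO vehicle served as the neutral condition. Each well held 2,000 cells given 5-fluorouridine plus compound; after 16 hr at 37 °C/5% CO2, ONE-Glo was added and luciferase measured 30 min later.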
PGK inhibitor: inhibitors of T. brucei phosphoglycerate kinase; Potency, µM (doses to about 57.5 µM), without a hit: at the highest dose activity change, negative = inhibition, hits mostly inhibitors; P07378; PGK/GAPDH coupled, Kinase-Glo luminescence, 60 min; hit rate 0.043% among 380,000; further: on the % scale 0 is the no-effect control and ±100 the full control effect; nearly all actives have a fitted effect of over 60% in size
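Recombinant glycosomal PGK reaction used 1,3-bisphosphoglycerate generated in-well by GAPDH (100nM final) in 100mM TEA pH 7.6, 5mM MgCl2, 0.01% Tween-20. After 60 minutes at room temperature, ATP was read by Kinase-Glo Plus luminescence end-point.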
Rango-impB inh: prevents formation of the Rango-importin beta complex; Q14974; Rango CFP/YFP FRET sensor + importin beta, 45 min; Potency, µM (titrated, usually from 92.2 µM), inactives show top-dose inhibition of complex formation; hit rate 0.031% among 340,000; AID 540263; calls by dose curve;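 further: 0% = DMSO wells and 100% = buffer wells lacking importin beta; nearly all actives have a fitted effect of over 15% in size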
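FRET biosensor Rango (snurportin 1 IBB between N-terminal EYFP and C-terminal Cerulean), 50 nM in PBS/1 mM DTT/0.02% Tween-20/0.1% BSA, preincubated 5 min RT with compound; 0.125 microM importin beta added, 45 min RT, CFP/YFP FRET ratio read.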
PKM2 activator: PKM2 (human) enzyme activation; hit rate 0.34% among 260,000; Potency, µM (top dose mostly 57.5 µM), for the others: top-dose activation, most hits filed as activators; purified PKM2, Kinase-Glo ATP luminescence, activation; response scale: 0% is enzyme alone, no compound; further: on the % scale 0 is the no-effect control and ±100 the full control effect; nearly all actives have a fitted effect of over 55% in size
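hPK-M2, >95% pure; 0.1 mM ADP / 0.5 mM PEP final; imidazole pH7.2 buffer w/ 7 mM MgCl2, 50 mM KCl; 1 h RT; Kinase-Glo lum. Intermediate enzyme activity for dual inhibitor/activator qHTS.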
Tb PFK inh: inhibitors of T. brucei phosphofructokinase | O15648 | T. brucei PFK, ADP-Glo luminescence | Potency, µM (top dose mostly 57.5 µM), without a hit: at the top dose activity, negative = inhibition, actives largely listed as inhibitors | hit rate 0.17% among 330,000 | AID 485367;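 further: 0% = uninhibited 1x PFK enzyme wells and -100% = no-enzyme wells; nearly all actives have a fitted effect of over 60% in size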
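ADP-Glo luminescence quantified ADP after 45 min at room temperature, with 1.25 nM T. brucei PFK, 0.1 mM ATP and 0.5 mM fructose-6-phosphate in pH 8.0 TEA buffer. qHTS titrations up to 57 µM; curves classified by quality.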
Rango release inh: inhibitors of RanGTP-induced Rango-importin beta complex dissociation. Biochemical FRET Rango-importin beta, RanGTP-induced dissociation. Potency, µM (top dose mostly 46.1 µM), for inactives: at the top dose activity change, negative = inhibition. hit rate 0.071% among 340,000; calls by dose curve; further: % of control where 0% means no effect; nearly all actives have a fitted effect of over 45% in size
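Recombinant Rango FRET biosensor (EYFP–snurportin 1 IBB–cerulean CFP10) at 0.1 uM premixed with 0.25 uM importin beta in PBS, 1 mM DTT, 0.02% Tween-20, 0.1% BSA. Compound added 5 min; RanGTP-RCC1 (0.6 uM Ran, 2 mM GTP, 0.2 uM RCC1) then triggers release, read at 45 min.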
The depositor's hits bear a star; i = inactive; ? = inconclusive; . = not tested or not shown; [ ] = remark or other dose. Rows were chosen to be rich in hits. Some 2.4% of all compounds tested hit in one or more screens of this group. Unless noted, the call rests on the fitted dose curve; in most records, active means well fitted curve in the direction sought with a large enough effect; inconclusive means small, poorly fitted or top-dose-only effect, or another doubt; inactive means no such curve, though single readings can be large; an effect the other way counts as inactive or inconclusive. Potency means the concentration at half of the fitted maximal effect.

SMILES	ELG1 DNA repair	PGK inhibitor	Rango-impB inh	PKM2 activator	Tb PFK inh	Rango release inh
COc1ccc(CN(C)C(=O)CCc2ccc(S(=O)(=O)N3CCCCCC3)cc2)c(OC)c1	?	-8%	1%	.	-1%	0%
CCOc1ccc(CN(C)C(=O)CCc2ccc(S(=O)(=O)N3CCCCCC3)cc2)cc1	7.9µM*	-3%	2%	.	-6%	-1%
COCCN(Cc1ccccc1)C(=O)c1cccc(S(=O)(=O)N2CCN(c3ccc(F)cc3)CC2)c1	?	-3%	2%	.	0%	-23%
CN(Cc1cccc(F)c1)C(=O)c1ccc(S(=O)(=O)N2CCCCCC2)cc1	21µM*	2%	1%	.	-4%	1%
Cc1ccc(C(=O)N(C)Cc2ccc(N3CCOCC3)cc2)cc1S(=O)(=O)NCc1ccccc1	21µM*	4%	5%	.	16%	-11%
CN(Cc1ccc(F)cc1)C(=O)c1cccc(S(=O)(=O)N2CCN(c3ccccc3)CC2)c1	18µM*	7%	2%	.	1%	7%
CCN1C=C(Cc2ccccc2C)C2=C(C1)C(c1ccccc1C)C(C#N)=C(N)O2 (stereo not drawn)	?	5%	?	-8%	-2%	8.2µM*
Cc1cc(C)n(-c2nc(NCC3CCCO3)c3c4c(sc3n2)COC(C)(C)C4)n1 (stereo not drawn)	18µM*	i	1%	-6%	-1%	4%
Cc1cc(C)n(-c2nc(SCC(=O)NCC3CCCO3)c3c4c(sc3n2)CCCC4)n1 (stereo not drawn)	10%	.	.	-4%	-2%	.
Cc1cc(C)n(-c2nc(NCCCO)c3c4c(sc3n2)CCCC4)n1	?	-6%	5%	1%	6%	-19%
Cc1cc(C)n(-c2nc(NCC(C)O)c3c4c(sc3n2)CCCC4)n1 (stereo not drawn)	16µM*	2%	3%	-7%	6%	?
Cc1cc(C)n(-c2nc(NCCO)c3c4c(sc3n2)CCCC4)n1	?	2%	7%	1%	0%	8%
Cc1cc(C)n(-c2nc(SCCN(C)C)c3c4c(sc3n2)COC(C)(C)C4)n1	18µM*	-1%	3%	-13%	0%	5%
Cc1cc(C)n(-c2nc(NCC(C)O)c3c4c(sc3n2)COC(C)(C)C4)n1 (stereo not drawn)	15µM*	-1%	-5%	0%	-4%	0%
CC(NC(=O)CN(C)Cc1cccs1)c1ccccc1 (stereo not drawn)	-6%	-6%	-1%	1%	0%	-6%
Cc1nnsc1C(=O)Nc1ccc(S(=O)(=O)N2CCC(C)CC2)cc1	7.3µM*	6%	?	-2%	-5%	7%
CCOc1ccc(CN2C(=O)c3ccccc3Sc3ccc(C(=O)NCc4ccco4)cc32)cc1	.	5%	.	.	.	.
COc1ccc(S(=O)(=O)c2cc(NS(=O)(=O)c3ccc(Cl)cc3)c(C)c(C)c2O)cc1	.	0%	.	.	.	.
Cc1nn2c(c1-c1ccc(Cl)cc1)N=C(c1ccco1)CC2c1ccccc1 (stereo not drawn)	?	1%	58µM*	-9%	2%	-21%
CCOc1ccc(CCn2c(-c3ccco3)nc3ccccc3c2=O)cc1OCC	9.2µM*	-10%	1%	14%	-6%	0%
COc1ccc(OC)c(CNC(=O)C2CCCCN2S(=O)(=O)c2ccc(F)cc2)c1 (stereo not drawn)	.	0%	.	.	.	.
CCCN1C(=O)/C(=C/c2ccc(C)o2)SC1=Nc1ccc(OCC)cc1	-1%	-3%	1%	13µM*	-14%	-7%
CCCC(NC(=O)Cc1c(C)c2c(cc(C)c3c(C)coc32)oc1=O)C(=O)O (stereo not drawn)	9%	.	-2%	.	5%	-2%
O=C(NCc1cccs1)c1nc2c(nnn2Cc2ccccc2Cl)c(=O)[nH]1	16µM*	-10%	-2%	-3%	4%	8%
COc1ccc(C)cc1NC(=O)CN1CCCN(S(=O)(=O)c2ccc(Br)cc2)CC1	0%	-1%	-5%	-7%	9%	-11%

Shown with values under each structure: 6 of the compounds above
Every second line gives: ELG1 DNA repair | PGK inhibitor | Rango-impB inh | PKM2 activator | Tb PFK inh | Rango release inh
> Cc1cc(C)n(-c2nc(SCC(=O)NCC3CCCO3)c3c4c(sc3n2)CCCC4)n1 (stereo not drawn)
  10% | . | . | -4% | -2% | .
> COCCN(Cc1ccccc1)C(=O)c1cccc(S(=O)(=O)N2CCN(c3ccc(F)cc3)CC2)c1
  ? | -3% | 2% | . | 0% | -23%
> CCN1C=C(Cc2ccccc2C)C2=C(C1)C(c1ccccc1C)C(C#N)=C(N)O2 (stereo not drawn)
  ? | 5% | ? | -8% | -2% | 8.2µM*
> CCOc1ccc(CCn2c(-c3ccco3)nc3ccccc3c2=O)cc1OCC
  9.2µM* | -10% | 1% | 14% | -6% | 0%
> COc1ccc(C)cc1NC(=O)CN1CCCN(S(=O)(=O)c2ccc(Br)cc2)CC1
  0% | -1% | -5% | -7% | 9% | -11%
> CC(NC(=O)CN(C)Cc1cccs1)c1ccccc1 (stereo not drawn)
  -6% | -6% | -1% | 1% | 0% | -6%

Continued:
SMILES	ELG1 DNA repair	PGK inhibitor	Rango-impB inh	PKM2 activator	Tb PFK inh	Rango release inh
COc1ccc(CNc2ncnc3c2[nH]c2ccccc23)cc1	2.1µM*	0%	10%	14%	-7%	8%
CC(C)OCCCNc1ncnc2c1[nH]c1ccccc12	9.2µM*	-9%	3%	1%	-1%	-3%
Cc1ccc(NC(=O)CSc2ccccc2NC(=O)c2ccccc2Cl)cc1Cl	23µM*	-7%	0%	1%	-1%	-2%
Cc1ccc(NC(=O)COc2ccccc2C(=O)Nc2ccccc2)cc1Cl	16µM*	-6%	-1%	0%	2%	2%
CCOC(=O)CCCCCC(=O)Nc1ccc2c(c1)C(=O)N([C@H](C)CO)C[C@H](C)[C@@H](CN(C)C(=O)Nc1ccccc1)OCCCC[C@@H](C)O2	.	4%	.	.	.	.
CCOC(=O)c1c(S(=O)(=O)N2CCCC(C(=O)Nc3ccc(OCC)cc3)C2)c(C)n(C)c1C (stereo not drawn)	.	-2%	.	.	.	.
CCN(CC)S(=O)(=O)c1cccc(NC(=O)COC(=O)c2cc(C)oc2C)c1	21µM*	2%	-1%	1%	0%	-12%
CCOc1ccc(NC(=O)c2sc3nc(C)nc(N4CCOCC4)c3c2C)cc1	13µM*	4%	1%	0%	-1%	3%
Cc1nc(N2CCCCC2)c2c(C)c(C(=O)Nc3ccc4c(c3)OCCO4)sc2n1	10µM*	-4%	3%	0%[0.46 µM]	-5%	19%
CC(=O)c1ccc(NC(=O)c2ccc3c(c2)N(Cc2cccc(Cl)c2)C(=O)c2ccccc2S3(=O)=O)cc1	.	9%	.	.	.	.
CCC(C)C(NC(=O)c1ccccc1)C(=O)N1CCN(C(=O)c2ccccc2)CC1 (stereo not drawn)	.	i	.	.	.	.
[N-]=[N+]=CC(=O)C(Cc1ccccc1)N1C(=O)c2ccccc2C1=O (stereo not drawn)	5%	-3%	1%	11µM*	0%	-20%
O=C(O)C(Cc1ccccc1)N1C(=O)c2ccccc2C1=O (stereo not drawn)	5%	0%	-1%	3%	-2%	4%
COc1cccc2[nH]c3c(N4CC(C)CC(C)C4)ncnc3c12 (stereo not drawn)	15µM*	.	.	5%	0%	.
CCN(CCNC(=O)CN(C)S(=O)(=O)c1cccc2nsnc12)c1ccccc1	23µM*	-6%	1%	2%	2%	16%
